The nature of the series: Carboxyl group analysis by titration. In kind it is physicochemical. As to conditions: titrimetric, back-titration. The method, then: Without being bound by any particular theory, it is believed that the content of free carboxyl groups in the synthesized proteinoids is an essential factor in determining their solubility in different media, thus helping to understand their stability at different sites in the human body with different pHs. In order to determine the free carboxyl groups in the synthesized proteinoids, a titrimetric method was carried out. Briefly, to a known quantity of dry proteinoid, a known excess of 0.05 N NaOH was added, followed by the addition of 37% formaldehyde solution. The unreacted NaOH was back-titrated with standard 0.05 N HCl. A blank titration was also performed. In addition, human serum albumin (HSA) was titrated for comparison.

Consider “Albumin: human serum albumin titrated for comparison”, for which the “[Carboxyl groups]” value worked out at 56 mmol/g.

For the origin of these results see patent US10300024B2, “Proteinoid compounds, process of preparing same and uses thereof” (Bar-Ilan University, priority 2015, dated 2019).
